# Measured affinities in a library of Ab-14 light chain variants

The measurements come from Li et al. 2023 (doi:10.1038/s41467-023-39022-2) through the FLAb antibody collection.

Target: peptide PDVDLGDISGINAS, taken from heptad repeat 2 (HR2) of SARS-CoV-2 spike.

Parent scFv Ab-14: VH joined to VL by a 15-residue (Gly4Ser)3 linker. Changes lie in the light chain CDRs alone.
VH: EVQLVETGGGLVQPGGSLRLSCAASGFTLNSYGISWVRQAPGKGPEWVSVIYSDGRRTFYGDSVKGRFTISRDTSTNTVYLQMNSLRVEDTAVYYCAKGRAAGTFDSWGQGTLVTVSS
VL: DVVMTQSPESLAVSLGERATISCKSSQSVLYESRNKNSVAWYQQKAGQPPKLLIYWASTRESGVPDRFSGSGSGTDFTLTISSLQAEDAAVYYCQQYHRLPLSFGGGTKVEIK

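Phage display of a naive human antibody library on the peptide gave the parent. Designed CDR sequences, proposed from the first random library and measured here. Several design methods are mixed in this list. AlphaSeq pools MATa yeast showing the antibodies with MATalpha yeast showing the peptide. Pairs that bind mate more often; barcode pairs of the diploids are counted by sequencing. Each replicate has its own calibration line, from reference interactions of the BCL2 family. Mating was done six times.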

Each variant is given by its three light chain CDRs, as the data file delimits them; those of the parent are KSSQSVLYESRNKNSVA, WASTRES, QQYHRLPLS. Affinities are written as log10 Kd with Kd in nM; a lower number is a better binder. The mean shown is taken over the replicates in which the pair was detected. A pair that was not seen in any replicate is written "nd"; this usually means weak binding, but a binder can also be missed. Where one sequence has several entries in the source, the replicates are pooled. The parent sequence was in this pool as ten entries: three were never detected, three once, and four in most replicates, with averages from 0.34 to 2.37. Three control strains display no target. For all light chain designs, 4% of the pairings with them gave a signal, with a median of 2.64 and one signal in twenty below 1.59, so weak values seen in few replicates may be background. A sequence measured in both rounds can read differently, since the two assays cover different ranges. The authors averaged sequences with at least three values out of six and counted those with two or fewer as poor binders.

| CDR-L1 | CDR-L2 | CDR-L3 | log10 Kd (nM), mean | replicates with signal |
|---|---|---|---|---|
| KLEQSVLYESRNKNSVA | NASQRMS | QQYHRLPLS | 0.16 | 6/6 |
| KLQQSHLYESRMKNSVA | NASTRLS | QQYHRLPLS | 0.18 | 6/6 |
| IISHVDAYESRNKNSIA | DQSTRGS | QQYDRLPLS | 0.34 | 6/6 |
| KVEQSWLYESRNKNAVA | NASTRES | QQYHRLPLS | -0.62 | 6/6 |
| MISDLPMYGSRNKNSVA | DLSTRGS | QQYHRLPLS | -0.06 | 6/6 |
| KSPQSVLYESRNKNSVA | NASQRES | QQYHRLPLS | 0.41 | 6/6 |
| IISGSMLMESRNKNSVA | NAENREY | QHYDRLPLS | 1.02 | 5/6 |
| KLGQSVAMTSRNKNNVA | DLNERER | QQYDRLPLS | 2.00 | 5/6 |
| MVTQMAMSGMKNKRSVA | NAETREK | QQYHRLPLI | 1.54 | 6/6 |
| HITMGMYVMGRHHSSIA | QAEERAK | QQYDRLPLI | 1.42 | 6/6 |
| KQSESVLYESVNKNSVA | DASTRES | QQYHRLPLS | 0.04 | 6/6 |
| TISTSANYESTNINSVA | ELTTRGS | QQYERLPLS | 1.63 | 6/6 |
| SISMLLNFESKIGNNVA | QMETRVN | QQYDRLPLS | 0.87 | 6/6 |
| KSSQSVLYESGNKNSVA | NASTRMS | QQYHRLPLS | 0.27 | 6/6 |
| IVSQMMLWGMHAKNSIA | EAVTRLN | QQYDRLPLF | 2.50 | 4/6 |
| KQSQSVLYGERNGNSVA | NASYRLS | QQYHRLPLS | 0.72 | 6/6 |
| KLSTSVLYESRMCNAVA | AASTREE | QQYHRLPLS | -0.07 | 6/6 |
| KIGATLNTLYEKQNNVA | DLVEREN | QQYFRLPLS | 0.62 | 6/6 |
| SLSMNQGEESSVWENVA | QGDIAEN | QDYSRLPLI | 1.81 | 6/6 |
| KLTNSTLYESRQKNSVA | WASTRES | QQYHRLPLS | 0.89 | 6/6 |
| KLSQSGLYESRNKNSVA | NASTRCS | QQYHRLPLS | -0.06 | 6/6 |
| KQSQSWLMESRNKNSVA | EASTRQS | QQYHRLPLS | 0.06 | 6/6 |
| KSSQSVLQESMNKNSVA | WASTRES | PQYHRLPLS | nd | 0/6 |
| TVKALLEMYAQDKHSVA | EAVERAS | QQYHRLPLG | 0.66 | 6/6 |
| KVMYFNEQVSLKGSNVA | DNETREQ | QQYFRLPLS | 0.26 | 6/6 |
| HISQSFMTEQVWRNNIA | HQSTREQ | QQYDRLPFS | 1.20 | 4/6 |
| KWSQSHSYESRNKNSVA | WASTRES | QQYHRLPLW | 1.85 | 1/6 |
| KLSISHQVEHINKSNVA | EMVTRES | QQYDRLPLS | 2.45 | 3/6 |
| KLSQSVLYESRNKNSVA | GASTRSS | QQYHRLPLS | -0.12 | 6/6 |
| KYSKSLLYESRNKNSVA | WASTCES | QQYHRLPLS | nd | 0/6 |
| KFPQSVGYQERNKNSVA | DASTRES | QQYHRLPLS | -0.33 | 6/6 |
| KVSQSDLYESRNKNSVA | DASTRES | QQYHRLPLS | -0.14 | 6/6 |
| MLSDLVKMGQRNTNSVA | DNSTRGS | QQYDRLPLS | 2.28 | 3/6 |
| KLSQSELYESRNKNSVA | NASTREY | QQYHRLPLS | 0.17 | 6/6 |
| KQSQSVLFESRNKNSVA | DASFRES | QQYHRLPLS | -0.17 | 6/6 |

The remaining entries, values ahead:

| log10 Kd (nM), mean | replicates with signal | CDR-L1 | CDR-L2 | CDR-L3 |
|---|---|---|---|---|
| 0.31 | 6/6 | KLTQSVLYESRNKNSVA | NASQRES | QQYHRLPLS |
| nd | 0/6 | KSSQSVLYESRNKYAVA | WASTRES | QQYHRLPLS |
| 0.83 | 6/6 | KISQSVLYESRDKNSVA | WASTREP | QQYHRLPLS |
| nd | 0/6 | MIEIIQDGYMEMRSAVA | DTSLVRM | QQYARLPLM |
| -0.26 | 6/6 | KLSESVLYESQNSNNVA | DASTRMS | QQYHRLPLS |
| 0.68 | 6/6 | KLSQSVLYESRNKNSVA | EASTREQ | QDYHRLPLS |
| 1.27 | 6/6 | MISQLYNLGQFAINSVA | QASERNN | QQYDRLPLT |
| 1.96 | 4/6 | KISYMGEYFSTNHSSIA | QASTRMQ | QQYHRLPLS |
| nd | 0/6 | KSSQSVDMESRNLNSVA | WASTRES | QQYHRLPLS |
| -0.31 | 12/12 | KFSQSVLYESRNKNSVA | NGSTRES | QQYHRLPLS |
| 0.46 | 6/6 | KITGMWTFQSHNRNNIA | EESTRED | QSYHRLPLS |
| 0.31 | 6/6 | KFSQSDLYEDRAKNSVA | NASTRCS | QQYHRLPLS |
| 0.54 | 6/6 | IVSQSVLGGSRNINSVA | QTSEREY | QQYDRLPLS |
| -0.11 | 6/6 | KLEQSQLYESRNKNSVA | HASTRES | QQYHRLPLS |
| 2.59 | 1/6 | KFSQSVMMESRNKNSVA | EASTRES | QQYHRLPLS |
| 0.18 | 6/6 | KLRQSCEYEDRNKNSVA | MASQRCS | QQYHRLPLS |
| 0.57 | 6/6 | SLMQVGGYESNHKNSIA | DLRTRES | QQYHRLPLS |
| 0.21 | 6/6 | KLSQSVLYESRNKNSVA | GASTRES | QCYHRLPLS |
| 0.38 | 6/6 | KQSQSVLGESRNKNSVA | GASTRVS | QQYHRLPLS |
| 0.15 | 6/6 | KLSQSVLYESMNKNSVA | NASTRES | QQYHRLPLS |
| 0.27 | 6/6 | HIPQMVMYGSCNKNNVA | QVSTREE | QQYHRLPLS |
| 0.34 | 6/6 | KSSLSELFESRNKNSVA | NASTRES | QQYHRLPLS |
| 0.93 | 6/6 | MLSEVLHMLGAKKNSIA | DLVIRAN | QQYHRLPLM |
| 0.86 | 6/6 | TLYGLSMSMSKNKNNVA | EMTTREK | QQYDRLPLI |
| 3.20 | 3/6 | KISQPVLYESENFNSVA | WASTRES | QQYHRTPLS |
| -0.02 | 6/6 | KLSQSYPYESRNKNSVA | NASTRES | QQYHRLPLS |
| -0.27 | 6/6 | KLSQSWLYEERNKNSVA | NASQRES | QQYHRLPLS |
| 1.67 | 2/6 | RLDLSMSYSHEGRRAIA | NADALVI | QQYHRLPLI |
| 0.98 | 6/6 | KLSQADWYESRNKWSVA | NASLREQ | QQYHRLPLS |
| 2.49 | 1/6 | MVSQLMLWGLHAKNSIA | EAVTRFN | QQYDRLPLF |
| 2.47 | 4/6 | KLGQMVGYESRNKSRVA | DNSTRES | QQYDRLPLS |
| 0.94 | 6/6 | MISQLNNMGQFAINSVA | QASLRNE | QQYDRLPLI |
| 0.04 | 6/6 | KSSWSVDYEDRASNSVA | NASQRLW | QQYHRLPLS |
| 0.41 | 6/6 | KLSQSVLYEQRMKNSVA | NASTRES | QQYHRLPLS |
| 1.09 | 6/6 | TIGGTLMWGVMNRSNVA | EVSQRLN | QQYDRLPLM |

Picked from the list: the 8 lowest averages where every replicate gave a value.

| CDR-L1 | CDR-L2 | CDR-L3 | log10 Kd (nM), mean | replicates with signal |
|---|---|---|---|---|
| KVEQSWLYESRNKNAVA | NASTRES | QQYHRLPLS | -0.62 | 6/6 |
| KFPQSVGYQERNKNSVA | DASTRES | QQYHRLPLS | -0.33 | 6/6 |
| KFSQSVLYESRNKNSVA | NGSTRES | QQYHRLPLS | -0.31 | 12/12 |
| KLSQSWLYEERNKNSVA | NASQRES | QQYHRLPLS | -0.27 | 6/6 |
| KLSESVLYESQNSNNVA | DASTRMS | QQYHRLPLS | -0.26 | 6/6 |
| KQSQSVLFESRNKNSVA | DASFRES | QQYHRLPLS | -0.17 | 6/6 |
| KVSQSDLYESRNKNSVA | DASTRES | QQYHRLPLS | -0.14 | 6/6 |
| KLSQSVLYESRNKNSVA | GASTRSS | QQYHRLPLS | -0.12 | 6/6 |